Test results as given in patent US9815819B2, “Complement pathway modulators and uses thereof” (priority 2012, dated 2017).

Amino acid sequences for entries named in this document (tags omitted). Residues count along the entry.
UniProt P00746, 26-253: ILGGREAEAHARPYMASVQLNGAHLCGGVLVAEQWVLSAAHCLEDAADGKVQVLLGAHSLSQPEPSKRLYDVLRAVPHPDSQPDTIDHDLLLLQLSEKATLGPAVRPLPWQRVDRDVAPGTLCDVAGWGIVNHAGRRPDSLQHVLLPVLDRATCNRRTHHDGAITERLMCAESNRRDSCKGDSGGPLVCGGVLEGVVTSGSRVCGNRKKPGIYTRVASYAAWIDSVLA

These molecules were tested against Recombinant human factor D (Homo sapiens (Human), UniProt P00746) (assay: Human Complement Factor D Assay: Method 1). Conditions: Factor D inhibition, Method 1: 10 nM factor D, 1 hour incubation with compound at room temperature, substrate Z-Lys-thiobenzyl, fluorescence readout.
Assay type: biochemical

IC50 [µM] | Structure (SMILES)
1.45 | NC(=O)c1nn(CC(=O)N2[C@@H]3C[C@@H]3C[C@H]2C(=O)NC2CC[C@H](c3ccccc3)C2)c2cnccc12 (single isomer, unassigned) [Example 84]
1.23 | NC(=O)c1nn(CC(=O)N2[C@@H]3C[C@@H]3C[C@H]2C(=O)NC2CC[C@@H](c3ccccc3)C2)c2cnccc12 (single isomer, unassigned) [Example 85]
0.648 | NC(=O)c1nn(CC(=O)N2[C@@H]3C[C@@H]3C[C@H]2C(=O)NC2CC[C@@H](c3ccccc3)C2)c2cnccc12 (single isomer, unassigned) [Example 86]

Continued, molecule first:

Structure (SMILES) | IC50 [µM]
NC(=O)c1nn(CC(=O)N2[C@@H]3C[C@@H]3C[C@H]2C(=O)NC2CCCC(c3ccccc3)C2)c2cnccc12 (single isomer, unassigned) [Example 82] | 0.23
NC(=O)c1nn(CC(=O)N2[C@@H]3C[C@@H]3C[C@H]2C(=O)NC2CC[C@H](c3ccccc3)C2)c2cnccc12 (single isomer, unassigned) [Example 83] | 1.29
